Earlier results on one substance are cited in patent US20100203024A1 (priority 2006, published 2010).

The series concerns EGFR-positive colorectal cancer.

Take cetuximab: the activity result (cetuximab alone) is “minimal activity”. In addition, the response rate (combined with irinotecan) is listed as 22%.
